The values below are quoted from earlier work in patent publication US20160038498A1, “METHODS FOR THE TREATMENT OF CANCER” (The Translational Genomics Research Institute, priority 2013, published 2016).

For the data set the following is noted: single intravenous injection of 50-70 mg of BI-2536; cited from earlier work.

As to `CC[C@@H]1C(=O)N(C)c2cnc(Nc3ccc(C(=O)NC4CCN(C)CC4)cc3OC)nc2N1C1CCCC1` [BI-2536], the concentrations achieved clinically was 31.2 to 55.2 µM.
